Molecular target: human α7 nAChR (Homo sapiens, UniProt P36544)
Assay: [125I]α-Bgtx radioligand binding (saturation and competition), membranes of transfected SH-SY5Y cells
Conditions: ratio relative to α4β2

Protein sequences, listed by entry. Tags and fused reporters are not part of them. Residues count along the entry.
UniProt P36544, 23-502 limits assumed: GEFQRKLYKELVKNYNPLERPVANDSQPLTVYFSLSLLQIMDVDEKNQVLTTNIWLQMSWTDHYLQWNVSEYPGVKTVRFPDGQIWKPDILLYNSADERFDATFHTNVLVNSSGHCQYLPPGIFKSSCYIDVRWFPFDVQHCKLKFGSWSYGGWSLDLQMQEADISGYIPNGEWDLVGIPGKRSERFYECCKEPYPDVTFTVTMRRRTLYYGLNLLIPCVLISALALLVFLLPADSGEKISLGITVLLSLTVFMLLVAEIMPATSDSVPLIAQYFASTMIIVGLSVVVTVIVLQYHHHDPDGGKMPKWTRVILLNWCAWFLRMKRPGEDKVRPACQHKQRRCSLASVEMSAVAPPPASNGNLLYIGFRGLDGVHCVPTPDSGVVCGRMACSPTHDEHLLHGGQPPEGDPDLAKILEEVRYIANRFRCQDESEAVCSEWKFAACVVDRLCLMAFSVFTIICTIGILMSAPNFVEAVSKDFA

Structure (SMILES) | Ki ratio α7/α4β2
c1ccc2nc3c(nc2c1)C1CNCC3C1 [Isovarenicline 5] | 23
c1ccc2cc3c(cc2c1)C1CNCC3C1 [C2 varenicline 4] | 93

Reference: article PMC12711630 (Cell Reports. Physical Science, 2025)
